Screens deposited in PubChem by several laboratories.
MC4R barr agon – agonists of human melanocortin 4 receptor (MC4R) beta-arrestin; P32245; U2OS MC4R beta-arrestin complementation, luminescence; percent of melanotan II response, DMSO zero; activation, % at 8.9 µM; 0.98% of 360,000 active;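 active = activation above a per-plate cutoff, the mean activation of sample wells on that plate plus 3 SD, cut at about 8% in these data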
ALR inh – inhibitors of human sulfhydryl oxidase ALR; P55789; purified ALR, DTT oxidation, H2O2 HRP-luminol luminescence; inhibition, % (test concentration not listed); actives 3.8% (n = 290,000); AID 485317;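 active = mean and each replicate at 75% or more; inconclusive = only one of the two met; inactive = neither met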;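 also: stock transfer was 7.5 nL into about 7.5 µL; 0% = neutral wells and 100% = wells with inactivated enzyme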
NALP1 yeast inh – NALP1 inhibition. 0.61% of 280,000 active. inhibition, % at 10 µM. S. cerevisiae NALP1/ASC/caspase-1 growth, X-gal OD620, 72 h. AID 2071; in the data active = inhibition mostly above about 24%, no sharp cut-off; inactive = mostly below about 32%
MC4R antag cAMP – antagonists of human melanocortin 4 receptor (MC4R). P32245. 0.48% of 360,000 active. MC4R-expressing cells, MTII-stimulated cAMP, LANCE TR-FRET. inhibition, % at 6.5 µM;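 active = inhibition above its plate's cutoff, the mean of tested wells on that plate plus 3 SD, cut at about 29% in these data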;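 also: 0% = Melanotan II alone and 100% = Melanotan II plus saturating MCL0020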
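Material: U2OS-MC4R stable cell line | Reagent: Melanotan II challenge after compound preincubation | Doses: One concentration, 6.5 µM nominal | Incubation: 30-min compound preincubation, 1-h Melanotan II challenge, 1-h detection, room temperature | Signal: TR-FRET cAMP assay | Replicates: One well per compound, no replicates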
UUG fidelity – modulators of start codon recognition fidelity in yeast; AID 602363; activity score, % at 18.7 µM; S. cerevisiae UUG-firefly luciferase reporter, luminescence/redox ratio; actives 0.13% (n = 350,000);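 active = replicate mean at a twofold rise or more, about +100% in these data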;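 note: firefly luciferase made from a UUG start codon reports start codon fidelity; reporter light over untreated wells divided by growth signal over untreated wells; some hits fall short of that in this replicate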
HDAC3 inhib – human HDAC3 inhibition. O15379. recombinant HDAC3, fluorogenic peptide/trypsin coupled, fluorescence. 0.15% of 320,000 active. inhibition, % at 8.3 µM; in the data active = inhibition above about 26%, passing the limit was not always enough
The depositor's hits bear a star; / = not tested or not shown. Only some compounds are listed: those with a hit (about 4.2% of all), similar ones and a draw of the others.

SMILES | MC4R barr agon | ALR inh | NALP1 yeast inh | MC4R antag cAMP | UUG fidelity | HDAC3 inhib
CCCn1nc(NS(=O)(=O)c2cccc3nonc23)c2cc3ccccc3nc21 | -4 | 99* | 14 | 1 | -14 | -1
COc1ccc(COCC23N=C4SCCCN4[C@H](c4ccccc4O2)[C@H]3COC(=O)c2ccccc2)cc1 | / | / | / | / | -13 | /
NC1=NC[C@H](Cc2ccc(O)cc2)N1CC1CCCCC1 | 0 | 90* | / | 5 | -17 | -8
NC1=NC[C@H](Cc2ccccc2)N1CC1CCCCC1 | -1 | -8 | / | -2 | -25 | 1
Cc1ccc(S(=O)(=O)N2C[C@@H](O)COC[C@H]3O[C@@H](CC(=O)N[C@H]4CCN(Cc5ccccc5)C4)CC[C@@H]32)cc1 | / | / | / | / | -2 | /
CN(C)/C=C(\C#N)C(=O)Nc1ccc(O)cc1F | -1 | 99* | 5 | 16 | / | 1
COc1ccc(N2CC(C(=O)Nc3nnc(SCc4cccnc4)s3)CC2=O)cc1 (stereo not given) | -3 | 20 | 10 | 0 | -15 | -7
COc1ccccc1N1CC(C(=O)Nc2nnc(SCc3cccnc3)s2)CC1=O (stereo not given) | 1 | 88* | 9 | 2 | -13 | 4
C[C@H]1CN([C@@H](C)CO)S(=O)(=O)c2ccc(-c3cccc(C#N)c3)cc2O[C@@H]1CN(C)C(=O)c1ccc(F)cc1 | / | / | / | / | -8 | /
Cc1ccc(Nc2c(-c3ccccc3)nc3cnccn23)cc1 | -2 | 98* | 0 | 12 | / | /
COc1ccc(-c2nc3cnccn3c2Nc2ccc(C)cc2)cc1 | 0 | 86* | 46 | 19 | -16 | -1
CN(C)C(=O)[C@@H]1[C@@H](CO)[C@@H]2Cn3c(ccc(C4=CCCCC4)c3=O)[C@@H]2N1C(=O)c1ccccc1F | / | / | / | / | 2 | /
Cc1nn(C)cc1NC(=O)C[C@@H]1CC[C@H]2[C@@H](COc3ccc(NC(=O)NC(C)C)cc3C(=O)N2C)O1 | / | / | / | / | -7 | /
Cc1ccnc(NC(=O)Nc2ccc3c(c2)N(C)C(=O)CS3)c1 | 9.1* | -31 | 28 | 5 | -7 | -5
Cc1cccc(NC(=O)Nc2ccc3c(c2)N(C)C(=O)CS3)n1 | -2 | 20 | 2 | 3 | -22 | 3
Cc1ccc(NC(=O)Nc2ccc3c(c2)N(C)C(=O)CS3)nc1 | 9.4* | -3 | 1 | 10 | -15 | 6
CC(C)NC(=O)Nc1ccc2c(c1)C(=O)N([C@H](C)CO)C[C@@H](C)[C@H](CN(C)C(=O)c1ccccc1)OCCCC[C@H](C)O2 | / | / | / | / | 0 | /
S=C1NC2=C(CCC/C2=C\c2ccc(Cl)cc2)C(c2ccc(Cl)cc2)N1 (stereo not given) | 5 | 2 | 40* | 0 | -26 | 5
S=C1NC2=C(CCC/C2=C\c2ccccc2)C(c2ccccc2)N1 (stereo not given) | 0 | 31 | 23 | 18 | -14 | 2
C[C@@H]1CN([C@@H](C)CO)C(=O)c2cc(/C=C/c3ccccc3)cnc2O[C@H]1CN(C)Cc1cccnc1 | / | / | / | / | 1 | /

Entries of single compounds from above. Order of screens: MC4R barr agon, ALR inh, NALP1 yeast inh, MC4R antag cAMP, UUG fidelity, HDAC3 inhib
`Cc1nn(C)cc1NC(=O)C[C@@H]1CC[C@H]2[C@@H](COc3ccc(NC(=O)NC(C)C)cc3C(=O)N2C)O1` as listed: /, /, /, /, -7, /
`Cc1ccnc(NC(=O)Nc2ccc3c(c2)N(C)C(=O)CS3)c1` as listed: 9.1*, -31, 28, 5, -7, -5
`Cc1ccc(NC(=O)Nc2ccc3c(c2)N(C)C(=O)CS3)nc1` as listed: 9.4*, -3, 1, 10, -15, 6
`COc1ccc(N2CC(C(=O)Nc3nnc(SCc4cccnc4)s3)CC2=O)cc1` (stereo not given) as listed: -3, 20, 10, 0, -15, -7

Carrying on.
SMILES | MC4R barr agon | ALR inh | NALP1 yeast inh | MC4R antag cAMP | UUG fidelity | HDAC3 inhib
CN(C)c1ccccc1C(=O)N1CCCC(Nc2ccc(F)cc2)C1 (stereo not given) | -2 | 99* | -11 | 14 | -10 | -1
Cn1cc(C(=O)N2CCCC(Nc3ccc(F)cc3)C2)c2ccccc21 (stereo not given) | -3 | 88* | -16 | 14 | 8 | 3
CCOC(=O)c1cc(-c2ccc(Cl)s2)[nH]n1 | 0 | -13 | 44* | -2 | / | 8
c1ccc2c(c1)OCCc1c-2[nH]c2ccccc12 | -1 | 96* | 11 | -6 | 7 | -5
O=C1CCCc2c1[nH]c1ccccc21 | -2 | -1 | -13 | -1 | -19 | 0
O=C(O)Cn1c(=O)c2c3c(sc2n(Cc2ccc(Cl)cc2Cl)c1=O)CCCC3 | 0 | 76* | -9 | 6 | / | 2
CC1CCc2sc3c(c2C1)c(=O)n(CC(=O)O)c(=O)n3Cc1ccc(Cl)cc1 (stereo not given) | -1 | / | -10 | 0 | -2 | 5
Oc1ccc(/C=C/c2ccnc3ccccc23)cc1 | 1 | 13 | 10 | 13 | -21 | -8
Oc1ccc(/C=C/c2cnccn2)cc1 | -2 | 83* | 20 | -1 | / | 5
CCCC(=O)Nc1ccc2c(c1)OC[C@H](C)N(C(=O)CC1CC1)C[C@H](C)[C@H](OC)CN(C)C2=O | / | / | / | / | 4 | /
C[C@@H](O)C#Cc1cnc2c(c1)C(=O)N([C@@H](C)CO)C[C@H](C)[C@@H](CN(C)C(=O)Nc1ccc(F)cc1)O2 | / | / | / | / | -1 | /
O=C(CSc1nnnn1C1CC1)N1CCN(c2ccc(O)cc2)CC1 | -4 | 99* | / | -2 | -18 | 9
c1cc(C(c2nnnn2C2CCCC2)N2CCOCC2)ccn1 (stereo not given) | 2 | -25 | 1 | 13 | -1 | -4
Oc1ccc(N2CCN(C(c3ccncc3)c3nnnn3C3CCCC3)CC2)cc1 (stereo not given) | -1 | 100* | 41 | 9 | -24 | 7
CC1(C)Cc2nc3oc4c(=S)nc[nH]c4c3cc2CO1 | -1 | 96* | / | 12 | / | 4
C=CCSc1ncnc2c1oc1nc3c(cc12)COC(C)(C)C3 | 0 | -6 | -7 | 11 | / | 0
CCCNC(=O)C[C@H]1CC[C@@H]2[C@H](COc3ccc(NC(=O)COC)cc3C(=O)N2C)O1 | / | / | / | / | -19 | /
Cc1ccc(S(=O)(=O)N(C)C[C@@H]2Oc3c(NC(=O)c4nc5ccccc5s4)cccc3C(=O)N([C@@H](C)CO)C[C@H]2C)cc1 | / | / | / | / | -19 | /
COc1ccc(S(=O)(=O)N[C@@H]2C=C[C@@H](CC(=O)N3CCN(c4ccccc4)CC3)O[C@H]2CO)cc1 | / | / | / | / | 7 | /
CCCCC(NC(=O)Cc1c(C)c2cc3c(C)c(C)oc3c(C)c2oc1=O)C(=O)O (stereo not given) | 1 | 97* | 31 | -7 | -4 | -4

Pulled by structure from above:
SMILES | MC4R barr agon | ALR inh | NALP1 yeast inh | MC4R antag cAMP | UUG fidelity | HDAC3 inhib
Cc1ccc(Nc2c(-c3ccccc3)nc3cnccn23)cc1 | -2 | 98* | 0 | 12 | / | /
Oc1ccc(/C=C/c2cnccn2)cc1 | -2 | 83* | 20 | -1 | / | 5

Continued.
SMILES | MC4R barr agon | ALR inh | NALP1 yeast inh | MC4R antag cAMP | UUG fidelity | HDAC3 inhib
CCCC(NC(=O)Cc1c(C)c2cc3c(C)c(C)oc3c(C)c2oc1=O)C(=O)N[C@@H](Cc1ccccc1)C(=O)O (stereo not given in full) | 0 | -14 | 9 | 8 | -15 | -3
C[C@@H]1CN([C@@H](C)CO)C(=O)c2cc(C#Cc3ccc(F)cc3)cnc2O[C@@H]1CN(C)C | / | / | / | / | 2 | /
O=C(COCC(=O)Nc1cccc(C(F)(F)F)c1)Nc1cccc(C(F)(F)F)c1 | 1 | -7 | 38* | 13 | 3 | 6
O=C(Nc1ccccc1)Nc1cccc(C(F)(F)F)c1 | 4 | -1 | -3 | 17 | -25 | -1
Cc1cc(NC(=O)Nc2cccc(C(F)(F)F)c2)n(C)n1 | -3 | -10 | 32* | -3 | / | 11
O=C(O)CS(=O)CC(=O)Nc1cccc(C(F)(F)F)c1 (stereo not given) | -3 | 99* | -22 | -10 | / | 3
COc1ccc(NC(=S)NNC(=S)Nc2cccc(C(F)(F)F)c2)cc1 | 1 | 14 | -6 | -1 | -14 | 28*
